Earlier results as cited in patent publication US20230120480A1, “METHODS FOR REMOVING CO[…] PLANT-DERIVED PHARMACEUTICALS” (priority 2021, published 2023).

Details: permissible limit of the pesticide in Cannabis, State of Oregon

**Q.** With `CN(C)NC(=O)CCC(=O)O` [Daminozide] as the molecule, how does the “Action Level (ppm)” value read?
**A.** 1 ppm
